Assay in all cases: FACS binding to live cells
What all share (conditions): antibody 20 micrograms/mL

One assay relates to SW1116. As for the experimental part:
(§1) Cells were prepared for FACS by initially washing the cell monolayer with DPBS (without Ca^++and Mg^++). Cell dissociation buffer (INVITROGEN) was then used to dislodge the cells from their cell culture plates at 37° C. After centrifugation and collection the cells were resuspended in Dulbecco's phosphate buffered saline containing MgCl2, CaCl2 and 25% fetal bovine serum at 4° C. (wash media) and counted, aliquoted to appropriate cell density, spun down to pellet the cells and resuspended in staining media (DPBS containing MgCl2, CaCl2 and 2% fetal bovine serum) at 4° C. in the presence of test antibodies (10A429.3) or control antibodies (isotype control or anti-EGF-R) at 20 micrograms/mL on ice for 30 minutes. Prior to the addition of Alexa Fluor 488-conjugated secondary antibody the cells were washed once with wash media. The Alexa Fluor 488-conjugated antibody in staining media was then added for 20 minutes. The cells were then washed for the final time and resuspended in staining media containing 1 microgram/mL propidium iodide. Flow cytometric acquisition of the cells was assessed by running samples on a FACScan using the CellQuest software (BD Biosciences). The forward (FSC) and side scatter (SSC) of the cells were set by adjusting the voltage and amplitude gains on the FSC and SSC detectors. […] Live cells were acquired by gating for FSC and propidium iodide exclusion.
(§2) Table 3 tabulated the mean fluorescence intensity fold increase above isotype control and is presented qualitatively as: less than 5 (−); 5 to 50 (+); 50 to 100 (++); above 100 (+++) and in parenthesis, the percentage of cells stained. Representative histograms of 10A429.3 antibodies were compiled for FIG. 1 and evidence the binding characteristics, inclusive of illustrated bimodal peaks in some cases. […] This was consistent with the lack of cytotoxicity to these cell types.

In a further assay the test system is PC-3. The procedure:
as §1, §2

The subject of another assay is OVCAR-3. As for the experimental part:
as §1, §2

Another assay relates to HT-29. As for the experimental part:
as §1, §2

A further assay deals with Hs888 Lu. As for the experimental part: as §1, §2
The next assay deals with CCD-27sk. The procedure:
as §1, §2

“anti-EGFR (C225): anti-EGFR antibody C225, IgG1, kappa, Cedarlane; positive control”: the “percentage of cells stained, SW1116” value in the assay on SW1116 is 43%. The “percentage of cells stained, PC-3” value in the assay on PC-3 worked out at 95%. In addition, the “percentage of cells stained, OVCAR-3” value in the assay on OVCAR-3 was 90%. Moreover, in the assay with HT-29, the “percentage of cells stained, HT-29” value was determined as 97%. For the same substance, in the assay with Hs888 Lu, the “percentage of cells stained, Hs888 Lu” value is listed as 95%. Further, the “percentage of cells stained, CCD-27sk” value in the assay with CCD-27sk was found to be 50%.
